Experiments:
fibroblast cells (3T6) = experiment: Toxicity in the T40/12 kD cell assay (lactate dehydrogenase kit); format: cell-based; settings: tested form: K salt
tau-tau binding = tau-tau binding (Homo sapiens, UniProt P10636); experiment: Cell-based assay I ('T40/12 kD'), production of the 12 kD fragment; settings: tested form: K salt
Excerpt: In essence, fibroblast cells (3T6) express full-length tau (“T40”) under control of an inducible promotor, and low constitutive levels of the PHF-core tau fragment (12 kD fragment). When T40 expression is induced, it undergoes aggregation-dependent truncation within the cell, N-terminally at ˜αα 295 and C-terminally at ˜αα 390, thereby producing higher levels of the 12 kD PHF-core domain fragment. Production of the 12 kD fragment can be blocked in a dose-dependent manner by tau-aggregation inhibitors. Indeed the quantitation of inhibitory activity of compounds with respect to proteolytic generation of the 12 kD fragment within cells can be described entirely in terms of the same parameters which describe inhibition of tau-tau binding in vitro. That is, extent of proteolytic generation of the 12 kD fragment within cells is determined entirely by the extent to tau-tau binding through the repeat domain. The availability of the relevant proteases within the cell is non-limiting.
The process is described in more detail in prior filed unpublished application GB 0101049.5. […]
A further parameter, B50, has been established in respect of compounds exemplified herein. The B50 value is the determined concentration of test compound used in the cell assay at which relative production of the 12 kD band from full-length tau was reduced to 50% of that observed in the absence of the compound. […]

By UniProt entry, the sequences of proteins in these tests, tags left out. Residues count along the entry.
UniProt P10636, 1-441 isoform 8: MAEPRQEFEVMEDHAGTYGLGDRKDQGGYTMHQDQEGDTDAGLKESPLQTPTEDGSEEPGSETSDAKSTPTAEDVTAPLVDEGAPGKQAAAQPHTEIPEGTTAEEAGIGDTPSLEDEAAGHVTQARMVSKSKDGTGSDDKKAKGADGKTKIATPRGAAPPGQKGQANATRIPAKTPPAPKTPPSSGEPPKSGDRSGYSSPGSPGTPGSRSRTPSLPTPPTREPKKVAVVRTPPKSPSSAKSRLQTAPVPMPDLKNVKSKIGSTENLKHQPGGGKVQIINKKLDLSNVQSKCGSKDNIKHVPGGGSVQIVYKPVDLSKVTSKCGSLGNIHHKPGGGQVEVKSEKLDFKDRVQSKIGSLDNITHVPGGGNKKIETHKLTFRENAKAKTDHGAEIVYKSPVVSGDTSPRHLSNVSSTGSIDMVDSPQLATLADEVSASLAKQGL

## O=C1C=C(S(=O)(=O)O)C(=O)c2ccccc21
Fibroblast cells (3T6); cellular LD50, cell numbers after 24 hrs exposure
  LD50: 18.55 µM
Fibroblast cells (3T6); therapeutic index, RxIndx=LD50/B50
  Rxindx: 5.45
tau-tau binding; apparent KI calculated from T40/12 kD cell data, assumes intracellular tau 500 nM, tau-tau Kd 22 nM
  Ki: 0.157 µM
tau-tau binding; read-out: B50, concentration at which production of the 12 kD band from full-length tau is reduced to 50%
  IC50: 3.41 µM

Reference: patent US7605179B2, “Napthoquinone derivatives as inhibitors of tau aggregation for the treatment of alzheimer's and related neurodegenerative disorders” (Wista Laboratories Ltd., priority 2001, dated 2009)
